This is a selection; strong and weak results do not stand in their true shares. Calls of active or inactive are those of the source.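 The calls were made as follows: active = inhibition above a per-plate limit of that plate's mean compound inhibition plus 3 SD (cut at about 60% in these data); inactive = the rest.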

In PubChem BioAssay AID1700 (The Scripps Research Institute Molecular Screening Center, 2009) one finds inhibition data, which are given here for 22 compounds.

The experiment can be described thus: KLF5 expression inhibitors, primary screen, DLD-1 cells, luminescence (AID 1700).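 Also: 0% = DMSO wells and 100% = LY294002 at 200 µM; higher means less KLF5 promoter-driven luciferase light.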 To be noted: DLD-1 KLF5 promoter-luciferase reporter, at 5 µM, active compounds read high.
A word on the inhibition: it is the relative decrease from the control value, in per cent. As for `CP(=O)(Oc1ccccc1)N1CCOC1=O` (configuration not stated), the inhibition is inactive: -9.95%.
Under `COc1ccc(OP(C)(=O)Nc2ccc(Br)cc2)cc1` (configuration not stated) stands inactive: -19.8%; under `CCN(CC)CC(O)COC(=O)C(O)(c1ccccc1)C1CCCCC1` (configuration not stated), inactive: -12.7%; under `CN(C)C(=O)c1c([N+](=O)[O-])cc([N+](=O)[O-])cc1[N+](=O)[O-]`, inactive: 8.9%.
On to `CC(C)(C)c1ccc(OP(C)(=O)O)cc1`, for which the inhibition was inactive: -27%.
Take `COc1ccccc1OP(C)(=O)Nc1ccccc1Br` (configuration not stated): the inhibition is inactive: -13.9%.
Consider `CP(=O)(Nc1ccc(Cl)cc1)Oc1ccc(F)cc1` (configuration not stated), for which the inhibition was inactive: 17%.
Under `CCOC(=O)c1ccc(NP(C)(=O)Oc2ccc(Cl)cc2)cc1` (configuration not stated) stands inactive: -5.39%; under `CP(=O)(OC12CC3CC(CC(C3)C1)C2)OC12CC3CC(CC(C3)C1)C2`, inactive: -6.45%.
On to `COc1ccccc1OP(C)(=O)Nc1ccc(C)c(C)c1` (configuration not stated), for which the inhibition is inactive: -4.11%.
Under `COc1ccc(OP(C)(=O)Nc2ccccc2Br)cc1` (configuration not stated) stands inactive: -0.66%.
As for `Cc1cc(C)cc(OP(C)(=O)Nc2cccc(C(F)(F)F)c2)c1` (configuration not stated), the inhibition is inactive: 9.25%.
For the compound `CP(=O)(OCCOc1ccccc1)OCCOc1ccccc1`, the inhibition was inactive: -7.59%.
Turning to `CP(=O)(Nc1ccc(Cl)cc1Cl)Oc1ccccc1` (configuration not stated), the inhibition was inactive: -34.9%.
On to `Cc1nc2ccc3ccccc3c2o1.O=[N+]([O-])c1cc([N+](=O)[O-])c(O)c([N+](=O)[O-])c1`, for which the inhibition was inactive: -11.6%.
As to `COc1ccc(OP(C)(=O)Nc2ccccn2)cc1` (configuration not stated), the inhibition was inactive: -18.1%.
For `CN(C)CCOC(=O)C(O)(c1ccccc1)C1CCCC1` (configuration not stated), the inhibition was inactive: 21.4%.
With `COc1ccccc1OP(C)(=O)Nc1ccc(Br)cc1` (configuration not stated) the figure was inactive: 4.62%; with `COc1ccccc1OP(C)(=O)Nc1ccc(C)cc1C` (configuration not stated), inactive: -8.75%.
On to `CP(=O)(Nc1ccccn1)Oc1ccccc1` (configuration not stated), for which the inhibition was inactive: -37.1%.
Under `CCc1ccc(OP(C)(=O)O)cc1` stands inactive: -5.62%; under `O=[N+]([O-])c1cc([N+](=O)[O-])c(Nc2ccccn2)c([N+](=O)[O-])c1`, inactive: -5.88%.
